Assays:
[1] = system: primary human NK cells; experiment: Lentiviral transduction of primary human NK cells, eGFP/GFP expression by FACS; assay type: cell-based
[2] = system: primary human NK cells; experiment: Viability of NK cultures before and after transduction (trypan blue / flow cytometry); assay type: cell-based; conditions: 1-3 days of priming with 500 IU/ml IL-2 (FIG. 14)

Substance: IL-2: recombinant human IL-2 (Roche), cytokine used to prime NK cells
- transduction efficiency versus days of priming ([1]; 500 IU/ml IL-2 for 1-6 days prior to transduction, GFP transgene (FIG. 14)): increased with 1-4 days of priming, then decreased slightly at days 5 and 6
- transduction efficiency ([1]; priming with 500 IU/ml IL-2 for two or more days prior to transduction, irradiated LCLs 10:1 added two days post-transduction (FIG. 4)): ≥ 25%
- cell viability [2]: ~100%

Reference: patent US12516292B2, “Methods of producing modified natural killer cells and methods of use” (The United States of America, as represented by the …, priority 2016, dated 2026)
